{"source": "patent US4013774A", "about": "(priority 1975, dated 1977)", "key": {"[1]": {"test_system": "American Cockroach (Periplaneta americana L.)", "assay": "American cockroach spray mortality test (24 hours)", "details": "mortality after 24 hours"}, "[2]": {"test_system": "Aphids (Aphis gossypii Glover)", "assay": "Aphid leaf-dip mortality test (cucumber leaves, 24 hours)", "details": "mortality after 24 hours"}, "[3]": {"test_system": "Flour Beetle (Tribolium confusum DuVal)", "assay": "Flour beetle mortality test on treated wheat grain (one week)", "details": "mortality after one week exposure, 10080 min"}}, "data": [{"smiles": "CN(SC(Cl)(Cl)C(Cl)Cl)C(=O)Oc1cccc2c1OC(C)(C)C2", "values": [{"measurement": "Cockroach, mortality, 16 ppm", "setting": "[1]; 16 ppm", "result": 7, "unit": "%"}, {"measurement": "Cockroach, mortality, 100 ppm", "setting": "[1]; 100 ppm", "result": 67, "unit": "%"}, {"measurement": "Aphids, mortality, 0.64 ppm", "setting": "[2]; 0.64 ppm", "result": 97, "unit": "%"}, {"measurement": "Aphids, mortality, 4 ppm", "setting": "[2]; 4 ppm", "result": 98, "unit": "%"}, {"measurement": "Flour Beetle, mortality, 5 ppm", "setting": "[3]", "result": 100, "unit": "%"}]}]}
